## Apparent affinities of Ab-95 variants for a coronavirus HR2 peptide

Binding partner: SARS-CoV-2 spike HR2 peptide, sequence PDVDLGDISGINAS.

The variants keep the heavy chain, the linker and the frameworks of Ab-95 (scFv order VH, three GGGGS repeats, VL).
VH: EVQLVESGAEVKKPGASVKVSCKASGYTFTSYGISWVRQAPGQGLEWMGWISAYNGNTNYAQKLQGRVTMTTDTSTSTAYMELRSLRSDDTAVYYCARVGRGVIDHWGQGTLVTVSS
VL: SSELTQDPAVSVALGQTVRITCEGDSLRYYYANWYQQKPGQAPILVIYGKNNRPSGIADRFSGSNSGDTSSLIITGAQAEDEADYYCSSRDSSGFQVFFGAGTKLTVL

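Library AAYL52 holds single substitutions and randomly drawn double and triple substitutions in the CDRs. Affinity was read by AlphaSeq, a pooled yeast mating assay with surface-displayed partners. The frequency of each diploid, read from paired DNA barcodes, reflects how well the two displayed proteins bind. A regression on co-assayed BCL2-family reference pairs converts the normalised counts of each replicate to an apparent Kd. Mating was done three times.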

Positions count from residue 1 of the parent VL; K50W puts W in place of K.
All variants listed here change S92 of the VL, counted from its first residue.
Kd is apparent (estimated from mating counts) and averaged on the log scale over replicates with a signal. Smaller is tighter.
A pair that was not seen in any replicate is written "not detected"; this usually means weak binding, but a binder can also be missed.
As a blank, each scFv also met three strains without target: over library AAYL52, 28% of these pairings were detected, typically at 8.2 µM and seldom below 800 nM.

| changes | Kd (apparent) | seen in |
|---|---|---|
| K50W/S92C/Q96G | 24 µM | 3 of 3 |
| G49M/S92R/F98A | 33 µM | 1 of 3 |
| Y29I/Y30D/S92T | 3.3 µM | 3 of 3 |
| G49I/S92N/G94P | 30 µM | 1 of 3 |
| E23N/S92A/V97N | 130 nM | 3 of 3 |
| D25T/S88N/S92R | 100 nM | 3 of 3 |
| R28Q/D91Q/S92K | not detected | 0 of 3 |
| S92L/Q96R | 130 nM | 3 of 3 |
| A32Q/S89L/S92G | 3.4 µM | 2 of 3 |
| R90T/S92Q/F98K | 720 nM | 3 of 3 |
| N52C/S92A | 500 nM | 3 of 3 |
| E23A/S92Q | 45 nM | 3 of 3 |
| L27C/R28T/S92I | 3.6 µM | 2 of 3 |
| Y30A/S92V | 20 nM | 3 of 3 |
| D25G/S92M/Q96W | 880 nM | 3 of 3 |
| S26N/K50L/S92W | 1.5 µM | 1 of 3 |
| R28N/S92Y/F95R | 150 nM | 3 of 3 |
| D25L/S92M/S93N | 250 nM | 3 of 3 |
| E23H/Y29V/S92R | 240 nM | 3 of 3 |
| R53N/S92K/F98I | 11 µM | 2 of 3 |
| Y29L/Y30A/S92W | 45 nM | 3 of 3 |
| R90S/S92W/S93L | 7.3 µM | 1 of 3 |
| S88Q/S92P | 240 nM | 3 of 3 |
| Y29W/S92R | 220 nM | 3 of 3 |
| Y29E/N52R/S92K | 3.6 µM | 3 of 3 |
| S92V/Q96W | 620 nM | 1 of 3 |
| D25S/S92C/F95E | 3.4 µM | 2 of 3 |
| S89R/S92Q | 450 nM | 2 of 3 |
| D25G/S89W/S92P | 5.0 µM | 3 of 3 |
| G49I/S88V/S92F | not detected | 0 of 3 |
| G24V/R28W/S92Q | 2.5 µM | 1 of 3 |
| S26V/S92D/Q96T | 6.0 µM | 2 of 3 |
| R28V/G49H/S92G | 5.1 µM | 1 of 3 |
| Y29K/P54H/S92D | 8.6 µM | 3 of 3 |
| N52Q/P54M/S92Y | 83 nM | 3 of 3 |
| S92E/G94R/F98W | 76 nM | 3 of 3 |
| R28S/R90Q/S92Y | not detected | 0 of 3 |
| A32G/N33G/S92P | 48 µM | 3 of 3 |
| S26I/S92T/V97S | 42 µM | 3 of 3 |
| G24L/D91K/S92D | 8.6 µM | 2 of 3 |
| D91W/S92K/S93H | 180 nM | 3 of 3 |
| P54C/S92K/S93Y | 3.0 µM | 3 of 3 |
| S92F/F98E | 25 µM | 1 of 3 |
| Y30V/N52K/S92D | 180 nM | 3 of 3 |
| S88G/S92F/S93I | 240 nM | 3 of 3 |
| L27Q/S92M | 690 nM | 3 of 3 |
| G49P/S88C/S92N | 1.1 µM | 1 of 3 |
| E23R/S92P/F95V | 200 nM | 3 of 3 |
| N51I/S88K/S92P | 11 µM | 2 of 3 |
| E23Y/S92L/V97S | not detected | 0 of 3 |
| A32N/S92D/Q96T | 5.6 µM | 1 of 3 |
| R53H/S92F/F98G | 14 µM | 3 of 3 |
| N52K/S92P/Q96G | 6.5 µM | 1 of 3 |
| G24T/K50A/S92N | 7.5 µM | 2 of 3 |

Extract of 3 entries:

changes,Kd (apparent),seen in
G24L/D91K/S92D,8.6 µM,2 of 3
E23R/S92P/F95V,200 nM,3 of 3
A32G/N33G/S92P,48 µM,3 of 3

Data: MIT Lincoln Laboratory AlphaSeq set, Engelhart et al. 2022, doi:10.1038/s41597-022-01779-4, as distributed in FLAb.